Assay results taken from US20210324104A1 (INSERM INSTITUT NATIONAL DE LA SANT ET DE LA RECHERCHE M …, published 2021).

Chains of the proteins cited; added tags and fusions are not shown. Residues count along the entry.
UniProt Q9NQS3, 58-549 limits assumed: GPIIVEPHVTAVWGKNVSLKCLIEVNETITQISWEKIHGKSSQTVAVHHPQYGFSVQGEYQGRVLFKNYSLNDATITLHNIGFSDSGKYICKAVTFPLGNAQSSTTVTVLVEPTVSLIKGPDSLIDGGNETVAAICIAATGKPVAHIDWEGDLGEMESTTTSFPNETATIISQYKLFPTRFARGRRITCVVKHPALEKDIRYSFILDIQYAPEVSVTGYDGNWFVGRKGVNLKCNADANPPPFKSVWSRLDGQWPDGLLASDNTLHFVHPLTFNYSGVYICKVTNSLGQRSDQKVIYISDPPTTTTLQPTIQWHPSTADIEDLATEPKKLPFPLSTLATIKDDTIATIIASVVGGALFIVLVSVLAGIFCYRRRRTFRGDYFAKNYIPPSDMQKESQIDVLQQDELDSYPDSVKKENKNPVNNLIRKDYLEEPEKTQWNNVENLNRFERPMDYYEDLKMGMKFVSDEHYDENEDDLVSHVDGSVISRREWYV

Biological target: T1, nectin-3 (UniProt Q9NQS3 58-549, limits assumed)
T1 construct: whole, on cells
Assay: western blot of lysates of MDA-MB-231 cells transfected with null vector (wt cells express nectin-1, -2, -3); similar results by FACS

binding result: no binding (tested: 1 µg/ml)
B1: 14A5.2 monoclonal antibody (antibody, V domains shown)
VH: EVLLQQSGPELVKPGASVKIPCKASGYTFTDYTMDWVKQSHGKSLEWIGDINPNNDVTMYNEKFKGRATLTVDKSSSTAYMEVRSLTSEDTAVYYCVRGRGFAYWGQGTLVTVSA
VL: DIVLTQSPASLIVSLGQRATISCRASQSVSTSSNSYMHWYQQKPGQPPKLLIRFASNLESGVPARFSGSGSGTYFTLNIHPVEEEDSATYYCQHSWEIPYTFGGGTKLEIK
notes: Parental non-chimeric monoclonal antibody; also called 14A5.2 mab; 14A5.2-HRP
